Data taken from PubChem BioAssay AID504454 (NMMLSC, 2011).
The entries are a selection whose mix differs from that of the whole data set. The source made the active and inactive calls.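 Rule for the calls: active = response above a set limit, near 3 SD of response in nonfluorescent compounds (cut at about 42% in these data); inactive = the rest.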

Sequences of proteins named here, by UniProt entry; tags and fusion partners are left off.
UniProt P07550, whole entry: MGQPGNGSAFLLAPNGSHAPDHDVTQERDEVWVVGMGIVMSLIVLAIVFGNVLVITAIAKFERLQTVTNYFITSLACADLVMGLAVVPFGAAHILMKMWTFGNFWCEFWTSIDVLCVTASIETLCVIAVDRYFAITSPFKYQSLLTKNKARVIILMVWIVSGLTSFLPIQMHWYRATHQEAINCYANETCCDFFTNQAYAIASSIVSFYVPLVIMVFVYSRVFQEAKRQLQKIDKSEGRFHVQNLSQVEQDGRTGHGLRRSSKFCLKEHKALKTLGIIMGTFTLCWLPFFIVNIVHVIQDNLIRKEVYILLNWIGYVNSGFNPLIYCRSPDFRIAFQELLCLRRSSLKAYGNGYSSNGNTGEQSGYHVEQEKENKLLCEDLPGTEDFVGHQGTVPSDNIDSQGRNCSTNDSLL

molecular target: Beta-2 adrenergic receptor (Homo sapiens) (UniProt P07550); experiment: beta2AR agonists driving receptor internalization, primary screen, cell-based, FAP fluorogen, flow cytometry (AID 504454); details: Am2.2-beta2AR cells, stronger effect = higher value, concentration not given here

SMILES | response
COc1ccc(N/C(=N/P(=O)(N2CCOCC2)N2CCOCC2)N2CCOCC2)cc1 | inactive: -0.17%
O=[N+]([O-])c1cc(Oc2ccc([N+](=O)[O-])cc2C(F)(F)F)cc([N+](=O)[O-])c1 | inactive: -4.46%
COc1ccc2nc(NP(=O)(c3ccccc3)c3ccccc3)sc2c1 | inactive: -2.36%
COc1cc(I)ccc1[As](=O)(O)O | inactive: -0.06%
O=P1(N(CCCl)CCCl)OCCCN1CCCl (configuration not stated) | inactive: -7.42%
O=P1(N(CCCl)CCCl)Nc2ccccc2N1 | inactive: 0.42%
O=C(OC1CN2CCC1CC2)C12CC3CC(CC(C3)C1)C2 (configuration not stated) | inactive: -22.1%
Cc1cc(=O)[nH]c(N[N+](=O)[O-])n1 | inactive: 2.49%
CCN(CC)CCCOC(=O)C(O)(c1ccccc1)c1ccccc1 | inactive: 17.2%
Cc1c2c(nc3ccccc13)SC(C(Cl)Cl)C2 (configuration not stated) | inactive: -2.63%
CP(=O)(Nc1ccccn1)Oc1ccc(Cl)cc1 (configuration not stated) | inactive: -1.64%
CCC(C)N(CC(C)C)C(=S)SC(NC(C)=O)C(Cl)(Cl)Cl (configuration not stated) | inactive: 0.73%
O=[N+]([O-])c1cc([N+](=O)[O-])c(O)c([N+](=O)[O-])c1.c1ccc(Oc2ccncc2)cc1 | inactive: -22.3%
CCOC(=O)c1ccc(NC(=O)C(C)(CCl)SC)cc1 (configuration not stated) | inactive: 1.01%
CCOC(=O)c1ccc(NP(C)(=O)Oc2ccc(OC)cc2)cc1 (configuration not stated) | inactive: -8.77%
CCOP(C)(=S)SCC(=O)NC(C)C(=O)O (configuration not stated) | inactive: -1.49%
O=C(OC1CN2CCC1CC2)c1cccc([N+](=O)[O-])c1 (configuration not stated) | inactive: 3.67%
CP(=O)(NC(=O)Nc1ccccc1)Oc1ccccc1 (configuration not stated) | inactive: 9.91%
O=C(COc1ccccc1)OC1CN2CCC1CC2 (configuration not stated) | inactive: 16.8%

SMILES | response
CCc1ccc(OP(C)(=O)N2CCN(c3ccc([N+](=O)[O-])cc3)CC2)cc1 (configuration not stated) | inactive: 6.61%
Cc1cc(C)cc(OP(C)(=O)Nc2ccc(SC(F)(F)F)cc2)c1 (configuration not stated) | inactive: 13.2%
O=C(Nc1ccncc1[N+](=O)[O-])c1ccc([N+](=O)[O-])cc1[N+](=O)[O-] | inactive: 18.5%
COP1(=S)c2c(C)nn(CCC#N)c2N=C(c2ccc(F)cc2)N1C (configuration not stated) | inactive: -4.15%
CP(=O)(Nc1ccc(SC(F)(F)F)cc1)Oc1ccc(Cl)cc1 (configuration not stated) | inactive: 1.35%
Cc1cccc(C)c1OP(C)(=O)Nc1ccc(SC(F)(F)F)cc1 (configuration not stated) | inactive: 5.13%
CP(=O)(Oc1ccccc1)OC(c1ccccc1)C(F)(F)F (configuration not stated) | inactive: -1.53%
CP(=O)(Nc1ccccc1Br)Oc1ccccc1 (configuration not stated) | inactive: -6.47%
O=[N+]([O-])c1ccc(Nc2ccc(Oc3ccc([N+](=O)[O-])cc3[N+](=O)[O-])cc2)c([N+](=O)[O-])c1 | inactive: -2.76%
Cc1cc(SC(NC=O)C(Cl)(Cl)Cl)ncn1 (configuration not stated) | inactive: 2.68%
O=P(Nc1ccccn1)(c1cccc2ccccc12)c1cccc2ccccc12 | inactive: 1.24%
COc1ccccc1OP(C)(=O)Nc1ccccc1 (configuration not stated) | inactive: 1.06%
CCOC(=O)Nc1cccc([As](=O)(O)O)c1 | inactive: -4.95%
CP(=S)(Nn1cnnc1)Oc1ccccc1 (configuration not stated) | inactive: 5.06%
CCCCOc1ccc(C(=O)NCC2(N3CCCCC3)CCCCC2)cc1OC | inactive: -3.85%
Cc1cc(SC(NC(=O)c2ccccc2)C(Cl)(Cl)Cl)nc(C(C)C)n1 (configuration not stated) | inactive: 9.94%
CC1CCNP(=O)(N(CCCl)CCCl)O1 (configuration not stated) | inactive: -10.8%
CCOC(=O)Nc1ccc([As](=O)(O)O)c(O)c1 | inactive: -4.19%
